In this test the target is T1, DNA polymerase catalytic subunit (Varicella-zoster virus (strain Dumas) (HHV-3) (Human herpesvirus 3), UniProt P09252).
T1 sequence (P09252 whole entry): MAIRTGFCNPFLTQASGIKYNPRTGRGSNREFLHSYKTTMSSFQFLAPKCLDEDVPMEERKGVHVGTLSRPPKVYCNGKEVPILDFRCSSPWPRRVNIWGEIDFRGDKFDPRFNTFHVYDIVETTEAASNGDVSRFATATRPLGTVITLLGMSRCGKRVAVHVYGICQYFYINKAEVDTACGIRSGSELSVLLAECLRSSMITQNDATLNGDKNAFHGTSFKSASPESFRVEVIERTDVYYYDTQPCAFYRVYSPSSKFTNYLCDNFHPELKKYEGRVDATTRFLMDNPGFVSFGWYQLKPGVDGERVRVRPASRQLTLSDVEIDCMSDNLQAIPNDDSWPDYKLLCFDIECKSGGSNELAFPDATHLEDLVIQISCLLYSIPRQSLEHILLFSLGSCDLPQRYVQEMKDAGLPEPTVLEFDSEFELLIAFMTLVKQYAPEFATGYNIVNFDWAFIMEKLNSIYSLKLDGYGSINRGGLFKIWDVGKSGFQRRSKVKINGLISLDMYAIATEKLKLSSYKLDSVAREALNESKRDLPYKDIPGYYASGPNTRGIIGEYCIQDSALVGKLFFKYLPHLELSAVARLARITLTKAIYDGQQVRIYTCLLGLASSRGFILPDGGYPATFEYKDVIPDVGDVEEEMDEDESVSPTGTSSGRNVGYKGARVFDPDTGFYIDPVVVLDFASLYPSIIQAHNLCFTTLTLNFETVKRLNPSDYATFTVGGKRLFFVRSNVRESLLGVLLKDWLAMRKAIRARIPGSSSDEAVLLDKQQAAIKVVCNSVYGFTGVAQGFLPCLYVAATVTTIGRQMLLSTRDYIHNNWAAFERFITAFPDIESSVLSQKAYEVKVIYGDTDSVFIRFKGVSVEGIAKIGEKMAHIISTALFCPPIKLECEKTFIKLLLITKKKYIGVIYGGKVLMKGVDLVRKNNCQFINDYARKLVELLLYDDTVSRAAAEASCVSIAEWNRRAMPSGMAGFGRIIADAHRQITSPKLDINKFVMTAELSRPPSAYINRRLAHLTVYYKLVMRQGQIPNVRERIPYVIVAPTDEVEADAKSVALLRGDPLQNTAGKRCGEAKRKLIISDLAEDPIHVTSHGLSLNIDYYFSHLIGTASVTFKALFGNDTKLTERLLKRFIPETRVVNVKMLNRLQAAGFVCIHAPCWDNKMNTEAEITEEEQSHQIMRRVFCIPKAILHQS
Kind of test: Inhibition of Varicella-Zoster virus DNA polymerase (95 uL) activity in a solution containing […] HEPES (pH 7.5), incubation for 12 minutes at 26 degrees C; [nd = not determined]. On the set-up: species or system Human alphaherpesvirus 3.

Some results are limits rather than exact numbers.

A word on the IC50: it is the concentration needed to halve the response being measured. High values mean a need for much substance, low ones inhibition by little substance.

`O=C(O)P(=O)(O)O` [FOSCARNET]: the IC50 is less than 280 nM.

(Values after ChEMBL document CHEMBL1141075, “4-Oxo-4,7-dihydrothieno[2,3-b]pyridines as non-nucleoside inhibitors of human cytomegalovirus and related herpesvirus polymerases” (J Med Chem, 2005).)
